{"sequences": {"note": "The chains behind the UniProt entries cited, without tags or fusion partners. Residues count along the entry.", "UniProt P46531, 1761-2127": "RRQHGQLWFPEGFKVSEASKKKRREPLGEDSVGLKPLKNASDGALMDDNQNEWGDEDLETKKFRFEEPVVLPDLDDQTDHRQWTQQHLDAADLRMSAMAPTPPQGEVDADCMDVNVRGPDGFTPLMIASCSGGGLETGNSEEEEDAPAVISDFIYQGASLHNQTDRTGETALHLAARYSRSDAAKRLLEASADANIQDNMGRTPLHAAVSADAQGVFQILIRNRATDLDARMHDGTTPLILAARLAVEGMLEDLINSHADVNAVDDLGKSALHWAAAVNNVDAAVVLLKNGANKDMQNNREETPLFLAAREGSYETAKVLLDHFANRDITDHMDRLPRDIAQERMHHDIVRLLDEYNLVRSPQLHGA", "UniProt Q06330, 23-449": "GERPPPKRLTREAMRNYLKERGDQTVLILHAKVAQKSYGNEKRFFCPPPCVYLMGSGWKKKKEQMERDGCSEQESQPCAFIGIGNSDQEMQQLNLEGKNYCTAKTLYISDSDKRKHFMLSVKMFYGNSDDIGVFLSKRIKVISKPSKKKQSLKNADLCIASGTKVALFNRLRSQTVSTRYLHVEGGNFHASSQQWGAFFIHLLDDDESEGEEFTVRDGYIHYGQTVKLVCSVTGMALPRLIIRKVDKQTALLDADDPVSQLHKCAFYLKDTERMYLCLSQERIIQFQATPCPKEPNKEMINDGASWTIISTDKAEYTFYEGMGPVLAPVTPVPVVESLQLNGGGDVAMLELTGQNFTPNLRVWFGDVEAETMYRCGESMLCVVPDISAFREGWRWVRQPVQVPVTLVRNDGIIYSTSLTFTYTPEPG"}, "source": "patent US20140256912A1", "about": "“Stabilized Variant MAML Peptides and Uses Thereof” (PRESIDENT AND FELLOWS OF HARVARD COLLEGE, priority 2011, published 2014)", "target": "T1, RAMANK1-CSL complexes (Homo sapiens, UniProt P46531+Q06330)", "T1 construct": "RAMANK1 (residues 1761-2127); Human CSL bearing a C-terminal hexahistidine tag (residues 9-435); hexahistidine (His6) (C); made in house; host or cells: E. coli BL21(DE3) pLysS", "assay": "Surface plasmon resonance binding of immobilized biotinylated peptides to soluble equimolar RAMANK1 and CSL", "conditions": "truncation to the N-terminal helix", "procedure": "SPR was used to measure the binding kinetics between the immobilized bio-sdnMAML1 peptide and equimolar RAMANK1-CSL complexes, which confirmed high-affinity binding (KD=0.04 μM, FIG. 2c). To our knowledge, these experiments represent the first reported affinity for dnMAML1 to any component of the NTC.\nHuman CSL bearing a C-terminal hexahistidine tag (residues 9-435), RAMANK1 (residues 1761-2127) and GST-labeled RAMANK1 were expressed in BL21(DE3) pLysS cells (Stratagene) and purified as previously described^37.\nA Biacore 3000 SPR-Instrument (Biacore-GE, Upsala, Sweden) was used to measure binding of Bio-sdnMAML1, Bio-sntdnMAML1 and Bio-SAHM1 peptides to soluble complexes of RAMANK1 and CSL. Peptides were dissolved in biacore binding buffer (20 mM Tris pH 8.4, 150 mM NaCl, 1 mM DTT, 1 mM EDTA and 0.05% P-20) and immobilized on a discrete flow cells of a streptavidin-CM5 Biacore chip by injection at 10 μL/min for 10 minutes. Equimolar dilutions of RAMANK1 and CSL (two-fold dilutions from 1 μM to 0.03125 μM, including two blanks) were mixed in biacore binding buffer and injected for 120-180 seconds onto the peptide-functionalized surface to measure NTC association kinetics, after which time NTC flow was stopped and buffer was injected to measure peptide dissociation kinetics. […]", "data": [{"compound": "CCCC[C@H](NC(=O)[C@@H](NC(=O)[C@H](C)NC(=O)[C@H](CO)NC(=O)CCNC(=O)CCOCCOCCOCCNC(=O)CCCC[C@@H]1SC[C@@H]2NC(=O)N[C@@H]21)C(C)C)C(=O)N[C@@H](CCC(=O)O)C(=O)N[C@@H](CCCNC(=N)N)C(=O)N[C@@H](CC(C)C)C(=O)N[C@@H](CCCNC(=N)N)C(=O)N[C@@H](CCCNC(=N)N)C(=O)N[C@@H](CCCNC(=N)N)C(=O)N[C@H](C(=O)N[C@@H](CCC(=O)O)C(=O)N[C@@H](CC(C)C)C(=O)N[C@@H](CS)C(=O)N[C@@H](CCCNC(=N)N)C(=O)N[C@@H](CCCNC(=N)N)C(=O)N[C@@H](Cc1c[nH]cn1)C(=O)N[C@@H](Cc1c[nH]cn1)C(=O)N[C@@H](CO)C(=O)N[C@H](C(=O)N[C@@H](CS)C(=O)N[C@@H](CCC(=O)O)C(=O)N[C@@H](C)C(=O)N[C@@H](CCCNC(=N)N)C(=O)N[C@@H](Cc1ccc(O)cc1)C(=O)N[C@@H](CCC(=O)O)C(=O)N[C@@H](C)C(=O)N[C@H](C(=O)N[C@@H](CO)C(N)=O)C(C)C)[C@@H](C)O)[C@@H](C)CC", "note": "[bio-nt-sdnMAML1]", "values": [{"measurement": "decrease of affinity relative to s-dnMAML1", "value": "approximately 10 fold"}]}]}
